Laboratory results reported in PubChem BioAssay AID1839 (Johns Hopkins Ion Channel Center, 2009).
Only a part is listed here, and it is no random draw. Active and inactive are the calls of the source.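 The calls were made as follows: active = signal change above the mean of dofetilide-free buffer controls plus 3 SD, so a positive margin; inactive = the rest.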

Assay: thallium signal changes without hERG – cell-based, CHO-K1 parental line, FluxOR thallium flux, counter-screen for hERG block protection project, confirmation (AID 1839);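 also: compounds applied alone with no dofetilide to cells lacking hERG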
Conditions: CHO-K1 parental cells, FluxOR thallium flux fluorescence; at 10 µM

Structure (SMILES) | signal change vs control minus 3*SD hit threshold (margin above threshold, higher = more increase)
Cc1ccc(NP(=O)(Oc2ccccc2F)Oc2ccccc2F)nc1 | inactive: -28%
